The source of these data is patent US20180186877A1, “METHOD FOR SUPPRESSING BLOOD COAGULATION REACTION FOR WHICH LOX-1 IS RESPONSIBLE” (NATIONAL CEREBRAL AND CARDIOVASCULAR CENTER, priority 2013, published 2018).

Broadly, the Kd is the constant that tells how readily two partners part at equilibrium.

In this assay the target is Human Factor V (HCV-0100, Haematologic Technologies Inc.) (human) (UniProt P12259). The experiment in a line: SPR (Biacore), FV immobilised on the chip, LOX-1 0-400 nM flowed; equilibrium (Req) analysis.

As for “Epitope-tagged recombinant LOX-1 protein (NM002543, aa 61-273, 6xHis; pcDNA4, Igk secretion signal; secreted by FreeStyle293 cells) (from UniProt P78380 61-273) (receptor)”, the Kd was found to be 15.2 nM.
